# According to US20040071967A1, “Microcapsule containing phase-change material and nucleating agent” (priority 2000, published 2004):
# Assays:
# Type in all cases: physicochemical
# Conditions in all cases: Table 7
# [1] = Critical aggregation concentration (solubility limit or critical micelle concentration)
# Description: (§1) The critical aggregation concentrations (solubility limit or critical micelle concentration) were determined by intersection of the linear portion of a surface tension/In concentration curve with the limiting surface tension as is described in many textbooks. The limiting surface tensions at 0.1 and 20 bubbles/second (b/s) represent the lowest surface tensions in water which can be achieved at the given surface creation rate for a given surfactant regardless of the amount of surfactant used. These values give information about the relative ability to a surfactant to reduce surface defects under near-equilibrium condition (0.1 b/s) through very dynamic conditions (20 b/s). Lower surface tensions would allow the elimination of defects upon application of a formulation onto lower energy surfaces.
# [2] = Dynamic surface tension of aqueous solutions, maximum bubble pressure method
# Description: as §1, with “In practical terms, high bubble rates correspond to high printing speeds in lithographic printing, high spray or roller velocities in coating applications, and rapid application rates for agricultural products. […] This value is a measure of the efficiency of a surfactant. […] The critical” for “The critical”
# [3] = Ross-Miles foam test based upon ASTM D 1173-53, 0.1 wt % solution
# Description: The foam height is measured at the completion of the addition (“Initial Foam Height”) and the time required for the foam to dissipate is recorded (“Time to 0 Foam”). This test provides a comparison between the foaming characteristics of various surfactant solutions. In general, in coatings, inks, and agricultural formulations, foam is undesirable because is complicates handling and can lead to coating and print defects, and to inefficient application of agricultural materials.
substance,measurement,setting,value
"5 mole ethylene oxide, 2 mole propylene oxide adduct of 2,4,7,9-tetramethyl-5-decyne-4,7-diol [Example 6]",CAG (Critical aggregation concentration),[1],0.10 wt %
same,γ (0.1% solution) 1 b/s,"[2]; 0.1% solution, 1 b/s",30.0 dyne/cm
same,γ (0.1% solution) 6 b/s,"[2]; 0.1% solution, 6 b/s",37.1 dyne/cm
same,limiting γ 0.1 b/s,[2]; 0.1 b/s,28.6 dyne/cm
same,limiting γ 20 b/s,[2]; 20 b/s,31.2 dyne/cm
same,pC20,[2],4.16
same,RM Foam initial,"[3]; Ross-Miles foam, initial",1.1 cm
same,RM Foam (t to 0),[3]; time to 0 foam in seconds,(5 s)
